The list is not random: actives were taken first. Their share in the collection is about 2.8%.
PglD DTNB = inhibitors of Campylobacter jejuni PglD acetyltransferase | purified PglD enzyme, DTNB colorimetric CoA detection | inhibition, % at 12.5 µM | 0.098% of 360,000 active; in the data active means inhibition above about 16%, passing the limit was not always enough; inconclusive means no clear call, values can overlap the other calls
miR122 inh = inhibitors of miR-122 in Huh7 cells | Huh7 miR-122 Renilla luciferase sensor, 48 h; neutral wells = 0, positive control = 100 | activation (reporter increase), % at 12.5 µM | 0.3% of 340,000 active | AID 602342;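 active means mean replicate activation score at least 90 and every replicate individually at or above 90; inconclusive means only one of the two criteria met; inactive means neither criterion met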;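 further: higher luciferase means less miR-122 activity so hits act as miR-122 inhibitors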
Wnt bcat act = activates Wnt/beta-catenin signaling in a reporter cell assay. activator, plate reader. activation, % at 9.35 µM. 1.2% of 300,000 active. AID 743398; in the data active means activation above about 30%, passing the limit was not always enough; inconclusive means no clear call, values can overlap the other calls;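 further: 0% = neutral control wells and 100% = positive control wells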
MITF act = increases MITF-driven TRPM1 promoter luciferase signal; SK-MEL-5 TRPM1-promoter luciferase, 24 h; % of positive control, neutral wells = 0; activation, % at 12.5 µM; 0.75% of 300,000 active;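 active means mean activation of at least 80% with every replicate also reaching 80%; inconclusive means mean reaches 80% but some replicate falls short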;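 further: 0% = neutral control wells and 100% = parthenolide positive control wells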
esBAF inh = inhibitors of esBAF chromatin remodeling in mouse ES cells | 2% of 350,000 active | Bmi1-luciferase knock-in reporter, 24 h; 100% = twice the neutral-well signal | reporter increase, % at 12.5 µM; in the data active means activation above about 40%; inconclusive means no clear call, values can overlap the other calls;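 further: 0% = median of the plate's neutral control wells and 100% = double that signal; a rise in the Bmi1 reporter signal indicates esBAF inhibition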
UUG fidelity = modulators of yeast start codon fidelity, primary screen, whole organism, S. cerevisiae, single point, plate reader | AID 602363, 2012 | S. cerevisiae UUG-firefly luciferase reporter, luminescence/redox ratio | activity score, % at 18.7 µM | hit rate 0.13% among 350,000;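 active = replicate mean at a twofold rise or more, about +100% in these data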;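 also: firefly luciferase made from a UUG start codon reports start codon fidelity; reporter light over untreated wells divided by growth signal over untreated wells; some hits fall short of that in this replicate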
* = called active by the depositor; ? = inconclusive; · = no result; [ ] = dose if it differs, or a comment.

1	O=C(N=Nc1c(O)[nH]c2ccc([N+](=O)[O-])cc12)c1ccccc1[N+](=O)[O-]
2	CC(Oc1ccccc1)C(=O)N=Nc1c(O)[nH]c2ccc([N+](=O)[O-])cc12 (centres undefined)
3	C[C@H]1CCCCO[C@H](CN(C)Cc2ccccc2)[C@@H](C)CN([C@@H](C)CO)C(=O)c2cc(NC(=O)CCCN(C)C)ccc2O1
4	CCCCN(CCCC)Cc1ccc(C(=O)NN)o1
5	O=C(CC1CC1)Nc1ccc2c(c1)[C@@H]1C[C@@H](CC(=O)N3CCOCC3)O[C@@H](CO)[C@@H]1O2
6	Cc1ccsc1CN(C)C(=O)c1cc(S(=O)(=O)N2CCOCC2)ccc1N1CCCC1
Screen / compound no.	1	2	3	4	5	6
esBAF inh	-11	2	2	-5	-1	-1
MITF act	-10	12	·	2	·	7
miR122 inh	2	232*	-1[16.7 µM]	2	0[16.7 µM]	10
UUG fidelity	-3	·	9	-7	7	-2
PglD DTNB	0	·	0	4	1	-2
Wnt bcat act	2	-3	·	55*	·	44*

7	O=C(C[C@@H]1CC[C@H](NC(=O)c2cccnc2)[C@@H](CO)O1)NCc1ccncn1
8	O=C(Nc1ccc([N+](=O)[O-])cc1Cl)c1cccc([N+](=O)[O-])c1
9	O=C(Nc1ccccc1F)Nc1ccc([N+](=O)[O-])cc1Cl
10	COc1ccc(C(=O)COc2ccc(F)cc2)c(O)c1
11	O=C(COc1ccccc1F)c1ccc(O)cc1O
12	CNC[C@@H]1OCCCC[C@@H](C)Oc2ccc(NC(=O)Nc3ccccc3)cc2C(=O)N([C@H](C)CO)C[C@H]1C
Screen / compound no.	7	8	9	10	11	12
esBAF inh	4	37	·	68*	32	-3
MITF act	·	·	67	74	19	·
miR122 inh	·	-2	·	-9	218*	-5[16.7 µM]
UUG fidelity	-7	-2	·	-13	-10	10
PglD DTNB	0	5	·	3	-2	-1
Wnt bcat act	·	2	43*	0	·	·

By substructure, the compounds so far with a halogen (4)
8	O=C(Nc1ccc([N+](=O)[O-])cc1Cl)c1cccc([N+](=O)[O-])c1
9	O=C(Nc1ccccc1F)Nc1ccc([N+](=O)[O-])cc1Cl
10	COc1ccc(C(=O)COc2ccc(F)cc2)c(O)c1
11	O=C(COc1ccccc1F)c1ccc(O)cc1O
Screen / compound no.	8	9	10	11
esBAF inh	37	·	68*	32
MITF act	·	67	74	19
miR122 inh	-2	·	-9	218*
UUG fidelity	-2	·	-13	-10
PglD DTNB	5	·	3	-2
Wnt bcat act	2	43*	0	·

The list continues.
13	C[C@H](O)C#Cc1ccc2c(c1)O[C@@H](CN(C)CC1CCOCC1)[C@@H](C)CN([C@H](C)CO)S2(=O)=O
14	O=C(O)c1cc(/C=C/c2ccc(N3CCOCC3)c([N+](=O)[O-])c2)nc2ccccc12
15	CN(C)C(=O)C[C@H]1CC[C@@H](NC(=O)c2ccc(F)cc2)[C@@H](CO)O1
16	Cc1ccc(C2CN=NC23CCc2ccccc2C3=O)cc1 (centres undefined)
17	Cc1ccccc1S(=O)(=O)N1CCCCN2[C@@H](CO)[C@H](c3ccc(-c4ccccc4)cc3)[C@@H]2C1
18	CCC(C)N1CC(O)=C(c2nc3ccccc3[nH]2)C1=N (centres undefined)
Screen / compound no.	13	14	15	16	17	18
esBAF inh	-1	·	3	48*	·	?
MITF act	·	-1	·	7	·	65
miR122 inh	13[16.7 µM]	9	7[16.7 µM]	-51	13[16.7 µM]	-5
UUG fidelity	-7	-26	-14	-60	-13	-13
PglD DTNB	-2	3	-1	3	4	-6
Wnt bcat act	·	34*	·	3	·	14

19	N=C1C(c2nc3ccccc3[nH]2)=C(O)CN1c1ccccc1
20	CC1C(O)=C(c2nc3ccccc3[nH]2)C(=N)N1c1ccccc1 (centres undefined)
21	C[C@@H]1CN([C@H](C)CO)C(=O)c2cccc(NC(=O)Nc3ccc4c(c3)OCO4)c2O[C@@H]1CN(C)S(=O)(=O)c1cn(C)cn1
22	Cc1ccc2nc(-c3ccc(NC(=O)CCN4C(=O)c5ccccc5C4=O)cc3)sc2c1
23	Cc1ccc2nc(-c3ccc(NC(=O)COCC(=O)O)cc3)sc2c1
24	Cc1ccc(C2(C)NC(=O)N(CC(=O)Nc3ccc(-c4nc5ccc(C)cc5s4)cc3)C2=O)cc1 (centres undefined)
Screen / compound no.	19	20	21	22	23	24
esBAF inh	63*	48*	-2	·	·	·
MITF act	45	30	·	23	·	59
miR122 inh	7	-6	-13[16.7 µM]	-3	·	·
UUG fidelity	-3	-16	8	-22	-11	-27
PglD DTNB	4	3	-2	-2	-4	4
Wnt bcat act	6	·	·	17	38*	38*

25	Cc1ccc2nc(-c3ccc(NC(=O)CSCC(=O)O)cc3)sc2c1
26	O=C(O)CSCC(=O)Nc1ccc(-c2nc3ccccc3s2)cc1
27	O=C(NC1CCCCC1)N[C@H]1CC[C@@H](CCNS(=O)(=O)c2ccc(F)cc2)O[C@@H]1CO
28	CNC[C@@H]1Oc2cc(C#CCN(C)C)ccc2S(=O)(=O)N([C@@H](C)CO)C[C@H]1C
29	Oc1c(C2=NCCNC(C(F)(F)F)=C2)ccc2ccccc12
30	Cc1ccc(O)c(C2=NCCNC(C(F)(F)F)=C2)c1
Screen / compound no.	25	26	27	28	29	30
esBAF inh	26	·	2	-3	·	-7
MITF act	103*	·	·	·	87*	-12
miR122 inh	0	1	·	-4[16.7 µM]	·	-4
UUG fidelity	-37	-16	9	41	·	-7
PglD DTNB	1	-1	3	1	·	0
Wnt bcat act	72*	13	·	·	-1	-2

31	C[C@@H]1CN([C@@H](C)CO)C(=O)c2cc(NC(=O)Nc3ccc(F)cc3)ccc2O[C@@H](C)CCCCO[C@@H]1CN(C)S(=O)(=O)c1ccc(Cl)cc1
32	O=C(NCC[C@H]1CC[C@@H](NC(=O)Nc2cc(F)ccc2F)[C@H](CO)O1)Nc1ccc(Cl)cc1
33	O=C(NCC[C@H]1CC[C@H](NC(=O)Nc2cc(F)ccc2F)[C@H](CO)O1)Nc1ccc(Cl)cc1
34	Cc1ccc(S(=O)(=O)N[C@H]2CC[C@@H](CCNC(=O)Nc3ccc(Cl)cc3)O[C@H]2CO)cc1
35	COc1ccccc1CNC(=O)C[C@@H]1C=C[C@H](NC(=O)CN(C)C)[C@H](CO)O1
36	C/C(=N\Nc1cccc2cccnc12)c1ccc[nH]1
Screen / compound no.	31	32	33	34	35	36
esBAF inh	-1	25	43*	45*	-2	47*
MITF act	·	·	·	·	·	48
miR122 inh	0[16.7 µM]	·	·	·	·	8
UUG fidelity	-4	3	8	0	·	-49
PglD DTNB	2	1	1	1	2	3
Wnt bcat act	·	·	·	·	·	42*

37	CCC(=O)Nc1cccc2cccnc12
38	O=C(c1ccccc1)c1cnc(-c2ccc(Cl)cc2)s1
39	O=C(c1ccccc1)c1cnc(-c2ccccc2)s1
40	CN(C)/C=C/C(=O)c1cnc(-c2ccc(Cl)cc2)s1
41	CN(C)/C=C/C(=O)c1cnc(-c2ccccc2)s1
42	O=C(NC1CCCCC1)c1cc(-c2ccccc2Cl)on1
Screen / compound no.	37	38	39	40	41	42
esBAF inh	3	39	·	·	56*	57*
MITF act	13	·	39	55	74	110*
miR122 inh	3	-22	·	-2	4	-8
UUG fidelity	-16	-18	·	-1	-10	·
PglD DTNB	-1	·	·	0	3	·
Wnt bcat act	18	40*	12	13	5	23

43	Cc1ccc(O)c(NC(=O)c2cc(-c3ccccc3Cl)on2)c1
44	O=C(NCC1CCCO1)c1cc(-c2ccc(Cl)cc2Cl)on1 (centres undefined)
45	O=C(NC1CCCC1)c1cc(-c2ccccc2Cl)on1
46	O=C(NC1CCCC1)c1cc(-c2ccc(Cl)cc2Cl)on1
47	C[C@H](NC(=O)C[C@H]1C[C@@H]2c3cc(NC(=O)NC4CCCC4)ccc3O[C@@H]2[C@@H](CO)O1)c1ccccc1
48	COc1ccccc1-c1cc(C(=O)NC2CCCC2)no1
49	COc1ccc(C(=O)COc2ccccc2C#N)cc1
Screen / compound no.	43	44	45	46	47	48	49
esBAF inh	52*	8	27	19	7	46*	·
MITF act	·	·	61	97*	·	51	·
miR122 inh	-2	-7	2	-3	-3[16.7 µM]	-2	·
UUG fidelity	-7	-18	-8	-3	-4	-4	·
PglD DTNB	6	-8	-1	6	4	2	·
Wnt bcat act	-3	37*	?	28	·	17	46*

Screens: PubChem, Broad Institute
